# Yeast mating assay 2: variants of the scFv Ab-91

All variants were tested on one target, the spike HR2 peptide PDVDLGDISGINAS (SARS-CoV-2).

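The parent was found by panning a naive human phage display library on the peptide. The library (AAYL51) carries one to three amino acid substitutions per variant, with no insertions or deletions. The scFvs were displayed on barcoded MATa yeast, the peptide on MATalpha yeast. Mating (16 h, 30 °C) was followed by selection of diploids and sequencing of their barcodes. Read counts were normalised to the haploid input and turned into Kd by a linear fit to BCL2-family pairs of known affinity, for each replicate. Each pool was mated in three replicate cultures.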

Parent: Ab-91, a human scFv built as VL, a (GGGGS)3 linker, VH. Only the CDRs of the heavy chain vary.
VL: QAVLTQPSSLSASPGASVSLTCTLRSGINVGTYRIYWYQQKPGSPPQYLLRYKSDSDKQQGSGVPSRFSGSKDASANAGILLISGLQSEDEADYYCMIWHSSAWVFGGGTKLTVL
VH: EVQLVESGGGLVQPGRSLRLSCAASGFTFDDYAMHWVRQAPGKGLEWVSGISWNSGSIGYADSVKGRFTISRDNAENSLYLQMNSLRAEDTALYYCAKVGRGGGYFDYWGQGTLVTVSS

Changes read parent residue, position, new residue, counted from the first residue of the VH shown. Numbers give log10(Kd / nM), so 0 is 1 nM and 3 is 1 µM. Smaller is tighter. The mean shown is taken over the replicates in which the pair was detected. An entry "nd" has no value in the source: the pair was not observed among the diploids in that replicate. This suggests poor binding but is not conclusive. As a blank, each scFv also met three strains without target: over library AAYL51, 21% of these pairings were detected, typically at 4.54 and seldom below 3.26. For each scFv, signals with the empty controls are counted beside the result, with their mean in brackets. Parent in this assay: reference entry 1.86, copy in this library 0.88.

| # | changes | log10 Kd (nM) by replicate | log10 Kd (nM), mean | empty controls |
|---|---|---|---|---|
| 1 | A33G G100I Y105F | nd / nd / nd | nd | 1 of 9 (3.60) |
| 2 | G56W | 3.85 / 4.54 / nd | 4.20 | 3 of 9 (4.58) |
| 3 | S55C D62H R101C | 4.66 / nd / nd | 4.66 | 1 of 9 (4.18) |
| 4 | A33N G56H V64T | 4.66 / nd / nd | 4.66 | 4 of 9 (5.32) |
| 5 | T28F S55W G102C | nd / nd / nd | nd | 1 of 9 (3.10) |
| 6 | F29R I58E R101F | nd / nd / nd | nd | 1 of 9 (3.63) |
| 7 | G59I V99T | nd / 4.81 / nd | 4.81 | 6 of 9 (4.89) |
| 8 | F29V K65V G103P | 4.34 / nd / nd | 4.34 | 1 of 9 (5.05) |
| 9 | D31N G59R Y60K | nd / nd / nd | nd | 3 of 9 (4.12) |
| 10 | S52D G103M Y108K | nd / nd / nd | nd | 0 of 9 |
| 11 | D31H S55D V99D | nd / nd / nd | nd | 1 of 9 (3.25) |
| 12 | S63N G100F Y108T | 6.01 / 6.15 / nd | 6.08 | 4 of 9 (5.14) |
| 13 | F29T H35W A61R | nd / nd / nd | nd | 4 of 9 (4.87) |
| 14 | T28E I51G D62K | nd / nd / nd | nd | 1 of 9 (4.65) |
| 15 | D31T S52V F106P | nd / nd / nd | nd | 0 of 9 |
| 16 | M34E G50Y S63C | nd / nd / nd | nd | 2 of 9 (3.90) |
| 17 | G26N R101Y D107F | nd / 4.55 / nd | 4.55 | 1 of 9 (4.49) |
| 18 | S57W V99H Y105M | nd / nd / nd | nd | 3 of 9 (4.12) |
| 19 | D31H H35Q D107S | 5.25 / 6.86 / nd | 6.05 | 4 of 9 (5.18) |
| 20 | Y32T A33L G50F | nd / nd / nd | nd | 3 of 9 (4.01) |
| 21 | F27I Y32A V64M | 3.26 / 3.65 / 3.50 | 3.47 | 1 of 9 (3.99) |
| 22 | D31G S63R G103E | nd / nd / nd | nd | 1 of 9 (3.95) |
| 23 | S55L A61F Y105K | nd / nd / nd | nd | 0 of 9 |
| 24 | G26A H35M F106W | 3.98 / 6.15 / nd | 5.07 | 4 of 9 (4.18) |
| 25 | N54A Y60D R101P | 4.38 / 4.73 / 5.06 | 4.72 | 4 of 9 (4.59) |
| 26 | D30I S55T S57C | 6.21 / nd / nd | 6.21 | 0 of 9 |
| 27 | G26T S57C Y105E | nd / nd / nd | nd | 1 of 9 (4.40) |
| 28 | D31H G59L F106I | nd / nd / nd | nd | 1 of 9 (4.47) |
| 29 | T28I G56P Y108W | nd / nd / nd | nd | 0 of 9 |
| 30 | W53K G100P Y108E | 4.67 / 4.85 / nd | 4.76 | 8 of 9 (5.45) |
| 31 | N54P D62M R101C | nd / nd / nd | nd | 0 of 9 |
| 32 | Y32V S52A W53L | 3.79 / 3.77 / 3.55 | 3.70 | 2 of 9 (4.19) |
| 33 | Y32F K65H G103M | nd / 3.69 / nd | 3.69 | 4 of 9 (4.73) |
| 34 | I58V V64S | 2.89 / 3.67 / 2.34 | 2.97 | 2 of 9 (4.15) |
| 35 | T28R Y60V D107Q | nd / nd / nd | nd | 1 of 9 (3.02) |
| 36 | M34C I58L V64E | 4.78 / 4.84 / nd | 4.81 | 3 of 9 (4.46) |
| 37 | S57C R101P G104Q | nd / 4.49 / nd | 4.49 | 0 of 9 |
| 38 | A33V I58T Y60P | nd / nd / nd | nd | 1 of 9 (4.43) |

Top 3 of the variants detected in all replicates, tightest first:

| changes | log10 Kd (nM) by replicate | log10 Kd (nM), mean | empty controls |
|---|---|---|---|
| I58V V64S | 2.89 / 3.67 / 2.34 | 2.97 | 2 of 9 (4.15) |
| F27I Y32A V64M | 3.26 / 3.65 / 3.50 | 3.47 | 1 of 9 (3.99) |
| Y32V S52A W53L | 3.79 / 3.77 / 3.55 | 3.70 | 2 of 9 (4.19) |

Values reported by Engelhart et al. 2022, doi:10.1038/s41597-022-01779-4 (FLAb copy).